Here are results for one substance from patent US11357857B2, “Excipient compounds for protein processing” (COMERA LIFE SCIENCES, INC., priority 2014, dated 2022).

For the series, the system named is bovine gamma globulin (BGG). Kind of series: Viscosity of 280 mg/mL BGG formulations in 50 mM histidine HCl pH 6 with excipient, cone and plate viscometer (Examples 1, 2, 4-6). The class given is physicochemical.

As for Sodium hydroxybenzoate, the Viscosity is on record as 50 cP and the “Viscosity Reduction” value was 37%.
